# From PubChem BioAssay AID2517 (National Center for Advancing Translational Sciences (NCATS), 2012)
# Amino acid sequences for entries named in this document (tags omitted).
# UniProt P27695, whole entry, looked up: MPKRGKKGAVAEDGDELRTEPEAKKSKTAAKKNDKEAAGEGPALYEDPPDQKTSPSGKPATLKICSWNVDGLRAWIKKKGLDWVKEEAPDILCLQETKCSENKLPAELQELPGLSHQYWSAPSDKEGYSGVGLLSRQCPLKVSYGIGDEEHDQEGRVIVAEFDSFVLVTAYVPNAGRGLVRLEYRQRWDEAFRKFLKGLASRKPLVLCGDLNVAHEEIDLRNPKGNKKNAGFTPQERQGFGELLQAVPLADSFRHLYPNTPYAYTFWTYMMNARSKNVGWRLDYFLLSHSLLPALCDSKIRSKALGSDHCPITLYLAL
# The list shows a part of the results, in another mix than the full data. Results filed as inconclusive are left out. Entries that show only a call come without a potency. The source made the active and inactive calls. Calls follow the shape of the dose curve; as a rule, active = well fitted inhibition curve with a large enough effect; inconclusive = small, poorly fitted or top-dose-only effect; inactive = no such curve, though single readings can be large or run the other way.
# Molecular target: DNA repair nuclease/redox regulator APEX1 (Homo sapiens) (UniProt P27695)
# Test: qHTS Assay for Inhibitors of the Human Apurinic/apyrimidinic Endonuclease 1 (APE1); also: nearly all actives have a fitted effect of over 55% in size
# Settings: recombinant APE1, TAMRA/BHQ-2 abasic DNA cleavage fluorescence; series mostly up to 65.8 µM
# Potency is read from the fitted curve at half-maximal effect.
row,SMILES,Potency
1,CN(C(=O)Cc1ccc(Cl)c(Cl)c1)[C@H]1CC[C@@]2(CCCO2)C[C@@H]1N1CCCC1,inactive
2,O=[N+]([O-])c1ccc2c(c1)nnn2O,inactive
3,CN(C(=O)Cc1ccccc1)[C@@H]1CC[C@]2(CCCO2)C[C@H]1N1CCCC1,inactive
4,CCOP1(=S)c2c(C)nn(CCC#N)c2N=C(c2ccc(F)cc2)N1C (configuration not stated),inactive
5,N#CCCN(C(=O)COC(=O)C(O)(c1ccccc1)c1ccccc1)c1ccc(F)cc1,inactive
6,O=[N+]([O-])CC(O)c1ccc([N+](=O)[O-])cc1 (configuration not stated),inactive
7,O=C(O)COc1ccc([As](=O)(O)O)cc1[N+](=O)[O-],inactive
8,Nc1ccccc1[As](=O)(O)c1ccccc1,inactive
9,CS(=O)(=O)c1cc([N+](=O)[O-])c2no[n+]([O-])c2c1,inactive
10,O=P(Nc1nccs1)(Oc1ccccc1)Oc1ccccc1,inactive
11,CCOP1(=S)c2c(C)nn(CCC#N)c2N=C(c2ccccc2F)N1C (configuration not stated),inactive
12,CCOP(=O)(Nc1cccc2ccccc12)OCC,inactive
13,COc1cc(C2NCCC3(OCCO3)C2(C)C)cc(OC)c1OC (configuration not stated),inactive
14,CCCOP(=S)(Nc1nc(N)cc(=O)[nH]1)OCCC,inactive
15,Cc1ccc(NCCc2c([N+](=O)[O-])cc([N+](=O)[O-])cc2[N+](=O)[O-])cc1,inactive
16,Nc1cccc2c([As](=O)(O)O)cccc12,inactive
17,O=[As](O)(c1cccc(O)c1)c1cccc(O)c1,inactive
18,Cc1cccc(OCC(=O)OC2CN3CCC2CC3)c1 (configuration not stated),inactive
19,CS(=O)(=O)c1ccc(Cl)c(NC(=O)COC(=O)C(O)(c2ccccc2)c2ccccc2)c1,inactive
20,COc1cc(C(=O)NCC2(N3CCOCC3)CCCCC2)cc(Cl)c1OC(C)C,inactive
21,CN(C(=O)Cc1ccc(Cl)c(Cl)c1)[C@@H]1CC[C@]2(CCCO2)C[C@H]1N1CCCC1,inactive
22,O=C(OC1CN2CCC1CC2)c1ccc(Cl)cc1 (configuration not stated),inactive
23,O=[As](O)(c1ccccc1Br)c1ccccc1Br,inactive

row,SMILES,Potency
1,CC(C)/C=N\N=C(\N)N[N+](=O)[O-],inactive
2,COc1ccccc1CNC(=O)COC(=O)C(O)(c1ccccc1)c1ccccc1,inactive
3,CC(C)(C)C(=O)NC(Sc1ncccn1)C(Cl)(Cl)Cl (configuration not stated),inactive
4,Clc1n[nH]nc1-c1nn[nH][15n]1,inactive
5,CN(CCCl)Cc1cc(Cl)c(NC2=NCCN2)c(Cl)c1,inactive
6,CCOP(=O)(Nc1ccc(C)cn1)OCC,inactive
7,CCOP(=O)(NC(=NC(C)c1ccccc1)NC(C)c1ccccc1)OCC (configuration not stated),inactive
8,CCC1=CC2Cc3nc4ccc(Cl)cc4c(N)c3C(C1)C2 (configuration not stated),inactive
9,O=P1(Nc2ccccn2)COc2ccccc2OC1,inactive
10,NS(=O)(=O)c1cccc(NC(=O)COC(=O)C(O)(c2ccccc2)c2ccccc2)c1,inactive
11,O=P1(Nc2ccc(Br)cn2)COc2ccccc2OC1,inactive
12,Cc1ccc(OCC(=O)OC2CN3CCC2CC3)cc1 (configuration not stated),inactive
13,O=[As](O)(c1cccs1)c1cccs1,inactive
14,Nc1cccc([As](=O)(O)c2ccccc2)c1,inactive
15,O=P1(Nc2ncccn2)COc2ccccc2OC1,inactive
16,O=C(/C=C/c1ccccc1)OC1CN2CCC1CC2 (configuration not stated),inactive
17,CN(C)C1(CNC(=O)c2ccc(S(C)(=O)=O)cc2)CCCCC1,inactive
18,Cc1ccc(C(=O)OC2CN3CCC2CC3)cc1 (configuration not stated),inactive
19,CC1CCC(C(C)C)C(OP(=O)(Nc2ccccn2)c2ccccc2)C1 (configuration not stated),inactive
20,Cc1nn(-c2ccccc2)c2c1P(=O)(N1CCOCC1)N(C)C(c1ccccc1)=N2 (configuration not stated),inactive
21,O=[N+]([O-])c1ccc(Nc2ccc(Oc3ccc([N+](=O)[O-])cc3[N+](=O)[O-])cc2)c([N+](=O)[O-])c1,inactive
22,CN(N=O)C(=N)N[N+](=O)[O-],inactive
23,Cc1cc(SC(NC=O)C(Cl)(Cl)Cl)ncn1 (configuration not stated),inactive

row,SMILES,Potency
1,O=P(Nc1ccccn1)(c1cccc2ccccc12)c1cccc2ccccc12,inactive
2,CCOC(=O)Nc1cccc([As](=O)(O)O)c1,inactive
3,Cc1cc(SC(NC(=O)c2ccccc2)C(Cl)(Cl)Cl)nc(C(C)C)n1 (configuration not stated),inactive
4,CCCCOc1ccc(C(=O)NCC2(N3CCCCC3)CCCCC2)cc1OC,inactive
5,CCOC(=O)Nc1ccc([As](=O)(O)O)c(O)c1,active: 224 nM
6,CCC(C)N(CC(C)C)C(=S)SC(NC(C)=O)C(Cl)(Cl)Cl (configuration not stated),inactive
7,CCOC(=O)c1ccc(NC(=O)C(C)(CCl)SC)cc1 (configuration not stated),inactive
8,O=C(OC1CN2CCC1CC2)c1cccc([N+](=O)[O-])c1 (configuration not stated),inactive
9,O=C(Nc1ccncc1[N+](=O)[O-])c1ccc([N+](=O)[O-])cc1[N+](=O)[O-],inactive
10,O=C(COc1ccccc1)OC1CN2CCC1CC2 (configuration not stated),inactive
11,COP1(=S)c2c(C)nn(CCC#N)c2N=C(c2ccc(F)cc2)N1C (configuration not stated),inactive
12,COc1cc(I)ccc1[As](=O)(O)O,inactive
13,COc1ccc2nc(NP(=O)(c3ccccc3)c3ccccc3)sc2c1,inactive
14,Cc1cc(=O)[nH]c(N[N+](=O)[O-])n1,inactive
15,O=C(OC1CN2CCC1CC2)C12CC3CC(CC(C3)C1)C2 (configuration not stated),inactive
16,Cc1c2c(nc3ccccc13)SC(C(Cl)Cl)C2 (configuration not stated),inactive
17,CCN(CC)C(=S)SC(NC=O)C(Cl)(Cl)Cl (configuration not stated),inactive
18,CC(C)NC(=O)NP(=O)(Oc1ccccc1)Oc1ccccc1,inactive
19,CC(C)c1ccc(OP(=O)(Nc2ccccn2)Oc2ccccc2F)cc1 (configuration not stated),inactive
20,ClCCSc1nnc(-c2cccnc2)o1,inactive
21,Cc1ccc2nc3c(c(C)c2c1)CC(C(Cl)Cl)S3 (configuration not stated),inactive
22,Cc1ccc(OP(=O)(Nc2ccc([N+](=O)[O-])cn2)Oc2ccc(C)cc2)cc1,inactive
23,COc1cc(C(=O)NCC2(N3CCOCC3)CCCCC2)ccc1OCC(C)C,inactive

row,SMILES,Potency
1,C[As](=O)(O)c1cccc(C(=O)O)c1,inactive
2,CCN(N=Nc1nonc1N)c1nonc1N,inactive
3,O=[N+]([O-])c1cc([N+](=O)[O-])c(CCN2CCOCC2)c([N+](=O)[O-])c1,inactive
4,Cc1ccc(NP(=O)(Oc2ccccc2F)Oc2ccccc2F)nc1,inactive
5,CCOP(=O)(Nc1ccccc1)OCC,inactive
6,Cc1cc(SC(NC(=O)c2ccc(F)cc2)C(Cl)(Cl)Cl)ncn1 (configuration not stated),inactive
7,O=C(O)c1ccccc1[As](=O)(O)O,inactive
8,CC(=O)Nc1ccc([As](=O)(O)O)cc1,inactive
9,O=P(Nc1nc2ccc(Cl)cc2s1)(c1ccccc1)c1ccccc1,inactive
10,CC(C)CC(=O)NC(Sc1ccc(Cl)cc1)C(Cl)(Cl)Cl (configuration not stated),inactive
11,Cc1c2non([O-])c-2c(C)[n+](=O)[n+]1[O-],inactive
12,O=C(NC(Sc1ccncn1)C(Cl)(Cl)Cl)c1ccccc1 (configuration not stated),inactive
13,Cc1ccc(OP(=O)(Nc2nccs2)Oc2ccc(C)cc2)cc1,inactive
14,COc1ccccc1OP(=O)(Nc1ccc(C)cn1)Oc1ccccc1OC,inactive
15,CN1CCCC(OC(=O)C(c2ccccc2)c2ccccc2)C1 (configuration not stated),inactive
16,NC(=O)c1cc([N+](=O)[O-])cc([N+](=O)[O-])c1N,inactive
17,Cc1ccc(N/C(=N/P(=O)(N2CCOCC2)N2CCOCC2)N2CCOCC2)cc1,inactive
18,CN(C)C(=O)OCCc1n(C)cc[n+]1C,inactive
19,CC(=O)C1=CCCC2CCC1N2 (configuration not stated),inactive
20,CC1CCN(C(=O)Oc2c(Cl)cc(Cl)c3cccnc23)CC1,inactive
21,Nc1ccc([As](=O)(O)c2ccc(N)cc2)cc1,inactive
22,CCN(/C(=N/P(=O)(N1CCOCC1)N1CCOCC1)N1CCOCC1)c1ccc(OC)cc1,inactive
23,CC(=O)N1C2C3N(C(C)=O)C1C1N(C(C)=O)C(C(N1C(C)=O)N3C(C)=O)N2C(C)=O,inactive

row,SMILES,Potency
1,O=[N+]([O-])c1cccc2n[nH]nc12,inactive
2,O=[N+]([O-])c1cc([N+](=O)[O-])c(CCNc2ccccc2)c([N+](=O)[O-])c1,inactive
3,Cc1ccc(NP(=O)(Oc2ccccc2)Oc2ccccc2)nc1,inactive
4,COc1ccc(C2=NCC(CBr)S2)cc1 (configuration not stated),inactive
5,O=[N+]([O-])c1cccc(NC2=NCC(CBr)S2)c1 (configuration not stated),inactive
6,O=C(O)CNc1ccc([As](=O)(O)O)cc1,inactive
7,CC(C)(C)C(=O)NC(Sc1ccncn1)C(Cl)(Cl)Cl (configuration not stated),inactive
8,O=[N+]([O-])c1ncn(CCn2ncnc2[N+](=O)[O-])n1,inactive
9,O=C(Nc1cc([As](=O)(O)O)ccc1O)c1ccccc1,inactive
10,Nc1ccc([As](=O)(O)c2ccc([N+](=O)[O-])cc2)cc1,inactive
11,O=C(OC1CN2CCC1CC2)c1cccc(Cl)c1 (configuration not stated),inactive
12,CC(=O)NC(SC(=S)N(C)C)C(Cl)(Cl)Cl (configuration not stated),inactive
13,O=[N+]([O-])c1ncn(CCn2cnc([N+](=O)[O-])n2)n1,inactive
14,O=[N+]([O-])c1ccc(O)c(/C=N/Nc2ccc([N+](=O)[O-])cc2[N+](=O)[O-])c1,inactive
15,O=[As](O)(c1ccccc1)c1ccc(O)cc1,inactive
16,C[C@H]1OP(=O)(Oc2ccccc2)[C@H](O)[C@H](O)[C@H]1N=[N+]=[N-] (some centres not stated),inactive
17,O=P(Nc1nc2ccccc2s1)(c1ccccc1)c1ccccc1,inactive
18,CN(C(=O)Cc1ccccc1)[C@H]1CC[C@@]2(CCCO2)C[C@@H]1N1CCCC1,inactive
19,Cc1cc([N+](=O)[O-])cc([N+](=O)[O-])c1O,inactive
20,O=P(Nc1ccccn1)(c1ccc(Br)cc1)c1ccc(Br)cc1,inactive
21,CCC(C)(OOC(C)(C)C)OOC(C)(C)C,inactive
22,O=P(Nc1nccs1)(c1ccccc1)c1ccccc1,inactive
23,CC(C)C(=O)NC(Sc1ccccc1)C(Cl)(Cl)Cl (configuration not stated),inactive

row,SMILES,Potency
1,CC(=O)Nc1ccc(Oc2c([N+](=O)[O-])cc([N+](=O)[O-])cc2[N+](=O)[O-])cc1,inactive
2,CC(=O)Nc1ccc([As](=O)(O)O)c(O)c1,inactive
3,CC(=O)c1ccc(N2CC2c2ccncc2)cc1 (configuration not stated),inactive
4,C[C@@H]1C=CCP(=O)(Oc2ccccc2)O1 (some centres not stated),inactive
5,C[C@H]1OP(=O)(Oc2ccccc2)C[C@@H]2O[C@@H]21 (some centres not stated),inactive
6,Cc1ccccc1CN(C)C(=O)COC(=O)C(O)(c1ccccc1)c1ccccc1,inactive
7,CC(C)(C)C(=O)NC(Sc1ccccc1)C(Cl)(Cl)Cl (configuration not stated),inactive
8,CCOc1ccc(C2=NCC(CBr)S2)cc1 (configuration not stated),inactive
9,O=P1(Nc2nc3ccc(Cl)cc3s2)COc2ccccc2O1 (configuration not stated),inactive
10,CN(C)C(=O)Oc1noc2ccccc12,inactive
11,O=c1c2cc([N+](=O)[O-])ccc2[nH]c2c([N+](=O)[O-])cc([N+](=O)[O-])cc12,inactive
12,CC(NC(=O)COC(=O)C(O)(c1ccccc1)c1ccccc1)c1ccccc1 (configuration not stated),inactive
13,CC(=O)NC(SC(=S)N(CC(C)C)CC(C)C)C(Cl)(Cl)Cl (configuration not stated),inactive
14,Cc1ccc(OP(=O)(Nc2ccccn2)Oc2ccc(C)cc2)cc1,inactive
15,COC(=O)c1cc2c(s1)N=C(c1ccccc1)N(C)P2(=O)N1CCOCC1 (configuration not stated),inactive
16,CCC(=O)N1C2C3N(C(=O)CC)C1C1N(C(=O)CC)C(C(N1C(=O)CC)N3C(=O)CC)N2C(=O)CC,inactive
17,O=C(OC1CN2CCC1CC2)c1ccccc1 (configuration not stated),inactive
18,O=C(NC1CCS(=O)(=O)C1)NP(=S)(Oc1ccccc1)Oc1ccccc1 (configuration not stated),inactive
19,CCNC(=S)/N=C(\N)N[N+](=O)[O-],inactive
20,Cc1ccc(NP(=O)(Oc2cccc(C)c2)Oc2cccc(C)c2)nc1,inactive
21,CCOC(=O)NC(Sc1ccccc1)C(Cl)(Cl)Cl (configuration not stated),inactive
22,c1ccc(-c2nn[nH]n2)c(-c2nn[nH]n2)c1,inactive
